# Experimental data from PubChem BioAssay AID435022 (Sanford-Burnham Center for Chemical Genomics, 2010).
# The list shows a part of the results, in another mix than the full data. Some results for these compounds are left out of this collection, so the calls shown say nothing about other tests. The source made the active and inactive calls. No stated cut-off is given here; in the data, active means inhibition above about 35%; inactive means the rest.
# Assay: inhibitors of PMA/ionomycin-induced NF-kB reporter, 697 cells, primary screen, B-cell NF-kB inhibitor project, cell-based, luminescence, uHTS (AID 435022)
# Settings: 697 B-cell NF-kB luciferase reporter, 16 h, at 4 µM, hits give high values
row,Compound,inhibition
1,Cc1ccc(C(=O)NCC2(N3CCCCC3)CCCCC2)cc1,inactive: 4.26%
2,CC(C)N1C(=O)CC2(CCN(CCOC(=O)C(O)(c3ccccc3)c3ccccc3)CC2)C1=O,inactive: -21.4%
3,CCN(CC)CC(C)C(C)OC(=O)C(O)(c1ccccc1)c1ccccc1 (centres undefined),inactive: -7.26%
4,COc1cc(SC)ccc1C(=O)NCC1(N(C)C)CCCCC1,inactive: -9.64%
5,CN1[C@@H]2CC[C@H]1CC(OC(=O)C(O)(c1ccccc1)c1ccccc1)C2 (some centres undefined),inactive: -17.9%
6,O=C(NCC1(N2CCCCC2)CCCCC1)c1cc([N+](=O)[O-])ccc1Cl,inactive: 17.1%
7,CCN1CCCC(OC(=O)C2(O)c3ccccc3C=Cc3ccccc32)C1 (centres undefined),inactive: -15.1%
8,Cc1cc(C(=O)NCC2(N3CCCCC3)CCCCC2)ccc1[N+](=O)[O-],inactive: -1.89%
9,O=C(NCC1(N2CCCCC2)CCCCC1)c1cccc(Br)c1,inactive: 0.411%
10,COc1ccc(C(=O)NCC2(N(C)C)CCCCC2)cc1,inactive: -7.44%
11,C=CCN1CCN(CCOC(=O)C(O)(c2ccccc2)c2ccccc2)CC1,inactive: -5.07%
12,O=C(NCC1(N2CCCCC2)CCCCC1)c1cc(F)c(F)cc1Cl,inactive: 13.3%
13,Cc1ccccc1C(=O)NCC1(N2CCCCC2)CCCCC1,inactive: 6.35%
14,CN(C)c1ccc(C(=O)NCC2(N(C)C)CCCCC2)cc1,inactive: -20%
15,CN(C)C1CCCC1OC(=O)C(O)(c1ccccc1)c1ccccc1 (centres undefined),inactive: 13%
16,O=C(NCC1(N2CCCCC2)CCCCC1)c1cccc(Cl)c1,inactive: 5.27%
17,COc1cccc(C(=O)NCC2(N3CCCCC3)CCCCC2)c1,inactive: 17%
18,COc1ccc(Cl)cc1C(=O)NCC1(N(C)C)CCCCC1,inactive: 1.77%
19,COc1cc(C(=O)NCC2(N(C)C)CCCCC2)c([N+](=O)[O-])cc1OC,inactive: -2.87%
20,CN(C)C1(CNC(=O)c2ccc(Br)cc2)CCCCC1,inactive: -15.5%
21,CN(C)c1cccc(C(=O)NCC2(N(C)C)CCCCC2)c1,inactive: -16.7%
22,CC(C)Oc1ccc(C(=O)NCC2(N(C)C)CCCCC2)cc1,inactive: 3.03%
23,COc1ccc(Br)c(C(=O)NCC2(N3CCCCC3)CCCCC2)c1,inactive: 9.2%
24,O=C(OC1CN2CCC1CC2)C(CO)(c1ccccc1)c1ccccc1 (centres undefined),inactive: 8.19%
